Like-named read-outs stand apart in the source and are kept apart here.
Biological target: T1, recombinant HIV-1 protease (Human immunodeficiency virus type 1 group M subtype B, UniProt P04585)
T1 construct: Enzyme: recombinant HIV-1 protease expressed in E.Coli; purchased Bachem California, Inc. H-9040; host or cells: E. coli
Assay: biochemical

Row | Compound | Ki (Ki (pM)) [pM] | other results
1 | CCOP(=O)(COC1CCN(CC(NC(=O)OC2COC3OCCC23)C(O)CN(CC(C)C)S(=O)(=O)c2ccc(OC)cc2)CC1)OCC (stereo not drawn) | – | Ki (Ki): > 1000 pM
2 | COc1ccc(S(=O)(=O)N(CC(C)C)CC(O)C(CNc2ccc(CP(=O)(O)O)cc2)NC(=O)OC2COC3OCCC23)cc1 (stereo not drawn) | – | Ki (Ki): 100 to 1000 pM
3 | CCOP(=O)(Cc1ccc(CNCC(NC(=O)OC2COC3OCCC23)C(O)CN(CC(C)C)S(=O)(=O)c2ccc(OC)cc2)cc1)OCC (stereo not drawn) | – | Ki (Ki): > 1000 pM
4 | COc1ccc(S(=O)(=O)N(CC(C)C)CC(O)C(CNCc2ccc(CP(=O)(O)O)cc2)NC(=O)OC2COC3OCCC23)cc1 (stereo not drawn) | – | Ki (Ki): > 1000 pM
5 | CCOP(=O)(Cc1ccc(CN(C)CC(NC(=O)OC2COC3OCCC23)C(O)CN(CC(C)C)S(=O)(=O)c2ccc(OC)cc2)cc1)OCC (stereo not drawn) | – | Ki (Ki): 100 to 1000 pM
6 | COc1ccc(S(=O)(=O)N(CC(C)C)CC(O)C(CN(C)Cc2ccc(CP(=O)(O)O)cc2)NC(=O)OC2COC3OCCC23)cc1 (stereo not drawn) | – | Ki (Ki): > 1000 pM
7 | CCOP(=O)(COc1ccc2c(c1)CN(CC(NC(=O)OC1COC3OCCC13)C(O)CN(CC(C)C)S(=O)(=O)c1ccc(OC)cc1)C2)OCC (stereo not drawn) | – | Ki (Ki): > 1000 pM
8 | COc1ccc(S(=O)(=O)N(CCN2CCOCC2)CC(O)C(Cc2ccc(OCP(=O)(O)O)cc2)NC(=O)OC2COC3OCCC23)cc1 (stereo not drawn) | > 1000 | –
9 | COc1ccc(S(=O)(=O)N(CCN2CCOCC2)CC(O)C(Cc2ccc(OCP(=O)(OCc3ccccc3)OCc3ccccc3)cc2)NC(=O)OC2COC3OCCC23)cc1 (stereo not drawn) | 100 to 1000 | –
10 | COc1ccc(S(=O)(=O)N(CC2CCNCC2)CC(O)C(Cc2ccc(O)cc2)NC(=O)OC2COC3OCCC23)cc1 (stereo not drawn) | > 1000 | –
11 | CCOP(=O)(COc1ccc(CC(NC(=O)OC2COC3OCCC23)C(O)CN(CC2CCN(C)CC2)S(=O)(=O)c2ccc(OC)cc2)cc1)OCC (stereo not drawn) | 100 to 1000 | –
12 | Cc1cccc(C)c1OCC(=O)NC(Cc1ccc(OCP(=O)(O)O)cc1)C(O)CN(CC(C)C)S(=O)(=O)c1ccc(N)cc1 (stereo not drawn) | > 1000 | –
13 | Cc1ccc(C(=O)NC(Cc2ccc(OCP(=O)(O)O)cc2)C(O)CN(CC(C)C)S(=O)(=O)c2ccc(N)cc2)cc1O (stereo not drawn) | 100 to 1000 | –
14 | Cc1ccc(C(=O)NC(Cc2ccc(OCP(=O)(OCc3ccccc3)OCc3ccccc3)cc2)C(O)CN(CC(C)C)S(=O)(=O)c2ccc(N)cc2)cc1O (stereo not drawn) | 100 to 1000 | –
15 | CC(C)CN(CC(O)C(Cc1ccc(OCP(=O)(O)O)cc1)NC(=O)OC1COC2OCCC12)S(=O)(=O)c1ccc(CN2CCOCC2)cc1 (stereo not drawn) | > 1000 | –
16 | CC(C)CN(CC(O)C(Cc1ccc(OCP(=O)(O)O)cc1)NC(=O)OC1COC2OCCC12)S(=O)(=O)N1CCN(C)CC1 (stereo not drawn) | > 1000 | –
17 | CC(C)CN(CC(O)C(Cc1ccc(OCP(=O)(OCc2ccccc2)OCc2ccccc2)cc1)NC(=O)OC1COC2OCCC12)S(=O)(=O)N1CCN(C)CC1 (stereo not drawn) | 100 to 1000 | –
18 | CC(C)CN(CC(O)C(Cc1ccc(OCP(=O)(O)O)cc1)NC(=O)OC1COC2OCCC12)C(=O)OC(C)(C)C (stereo not drawn) | > 1000 | –
19 | CC(C)CN(CC(O)C(Cc1ccc(OCP(=O)(OCc2ccccc2)OCc2ccccc2)cc1)NC(=O)OC1COC2OCCC12)C(=O)OC(C)(C)C (stereo not drawn) | > 1000 | –
20 | CC(C)CN(CC(O)C(Cc1ccccc1)NC(=O)OC1COC2OCCC12)S(=O)(=O)c1ccc(OCP(=O)(OCc2ccccc2)OCc2ccccc2)cc1 (stereo not drawn) | 100 to 1000 | –
21 | CCOP(=O)(COc1cc(S(=O)(=O)N(CC(C)C)CC(O)C(Cc2ccccc2)NC(=O)OC2COC3OCCC23)ccc1OC)OCC (stereo not drawn) | 100 to 1000 | –
22 | COc1ccc(S(=O)(=O)N(CC(C)C)CC(O)C(Cc2ccccc2)NC(=O)OC2COC3OCCC23)cc1OCP(=O)(OCc1ccccc1)OCc1ccccc1 (stereo not drawn) | > 1000 | –
23 | CCOP(=O)(COc1cc(S(=O)(=O)N(CC(C)C)CC(O)C(Cc2ccccc2)NC(=O)OC2COC3OCCC23)ccc1O)OCC (stereo not drawn) | 100 to 1000 | –
24 | CCOP(=O)(COc1ccc(CC2C(O)C(O)C(Cc3ccccc3)N(Cc3ccccc3)C(=O)N2Cc2ccccc2)cc1)OCC (stereo not drawn) | – | Ki (read-out: Enzymatic assay Ki): 656 pM; IC50 (read-out: Enzymatic assay WT IC50/nM): 3.9 nM
25 | CCOC(=O)CNP(=O)(COc1ccc(CC(NC(=O)OC2COC3OCCC23)C(O)CN(CC(C)C)S(=O)(=O)c2ccc(OC)cc2)cc1)NCC(=O)OCC (stereo not drawn) [Compound 16a] | – | Ki (HIV-1 protease inhibition Ki): 29 ± 8.2 pM
26 | CCCCOC(=O)C(CC)NP(=O)(COc1ccc(CC(NC(=O)OC2COC3OCCC23)C(O)CN(CC(C)C)S(=O)(=O)c2ccc(OC)cc2)cc1)NC(CC)C(=O)OCCCC (stereo not drawn) [Example 16f] | – | Ki (HIV-1 protease inhibition Ki): 3.5 ± 1.4 pM

Reference: US20040121316A1 (priority 2002, published 2004)
